Values of other authors, collected in publication PMC10786692 (The Journal of Clinical Investigation, 2024).

Test system: DDR-defective tumors
Conditions: in vivo; cited from earlier work

## C[C@@H]1COCCN1c1cc(-c2ccnn2C)c2ccnc(-c3ccn[nH]3)c2n1 [BAY1895344]
  Patients with durable responses: 4 of 11
